In data set [1] the test system is healthy rats. In words: Locomotor activity. Particulars: s.c.; fentanyl 30 µg/kg, morphine 16 mg/kg (highest dose), FF3 150 µg/kg (highest dose).
Data set [2] deals with healthy rats. In words: Conditioned place preference (CPP). Particulars: s.c.; fentanyl 30 µg/kg, morphine 2–16 mg/kg (most doses), FF3 all doses 30–150 µg/kg.
In a further data set the test system is rats. Nature of the data set: Defecation (constipation). Conditions: s.c.; fentanyl 30 µg/kg, morphine all doses 1–16 mg/kg, FF3 highest dose 150 µg/kg.
Data set [3] relates to healthy rats. Nature of the data set: Pulse oximetry: heart rate, oxygen saturation, respiratory rate. Conditions: s.c.; FF3 150 µg/kg (highest dose), 5–15 min; morphine all doses 8–64 mg/kg, entire period 60 min.
For a further data set, the system named is naïve rats. Nature of the data set: Motor coordination (accelerating Rota-Rod). Conditions: s.c.; fentanyl 30 µg/kg, morphine all doses 2–16 mg/kg, FF3 two highest doses 60–150 µg/kg.

The source of these data is PMC5997768 (2018).

Turning to `CN1CC[C@]23c4c5ccc(O)c4O[C@H]2[C@@H](O)C=C[C@H]3[C@H]1C5` [Morphine], the “Locomotor activity, distance traveled within 30 min” value in the data set with healthy rats [1] was “decreased”. For the same molecule, the Conditioned place preference result with healthy rats [2] was “produced preference for the drug-associated compartment”. Moreover, the “Constipation, number of defecations in 1 h” value with rats is reported as “reduced defecation”. For the same molecule, the Oxygen saturation entry in the data set on healthy rats [3] is “impaired”. Besides, in the data set with naïve rats, the “Motor coordination on accelerating Rota-Rod” value is “Impaired motor coordination”.
